Assays:
Hsp90α/p23 interactions = Hsp90α/p23 interactions (Homo sapiens, UniProt P07900); assay: HTS dose response, 293T cells stably expressing Hsp90α/p23 split RL reporters; details: read-out: IC50 (Hsp90α/p23); inhibition of bioluminescence signals by 50% vs carrier control; 8 point dose response 0.156-20 μM; 24 h
Protocol: (§1) Novel Hsp90 inhibitors using a commercial 30,176 small molecule chemical compound library with unknown targets and molecular mechanisms (FIG. 9B) were also identified. 293T cells stably expressing Hsp90α/p23 or Hsp90β/p23 split RL reporters were treated with each compound at 8.3 μM.
(§2) Baseline complemented RL activities were determined 90 mins after addition of 20 μl of ENDUREN® (10 μM final concentration) (Promega, Madison, Wis.) using the Analyst GT (Molecular Device, Sunnyvale, Calif.), with an acquisition time of 0.2 sec per well. Cells were incubated with compounds for 24 h prior to re-determination of complemented RL activities, and normalized to the mean RL activities of untreated cells in columns 1-2. Another small molecule chemical library with 30,176 compounds (SPECS, Wakefield, R.I.) was also used in screening modulators of Hsp90(α/β)/p23 inhibitors (at 8.3 μM, one drug per well for initial screening). For dose response/confirmation assay the compounds were tested in duplicate in an 8 point (0.156-20 μM) dose response assay for RL activities for both Hps90(α/β)/p23 interactions. The effect of each compound on cell proliferation at 20 μM was determined using Cell Titer-Blue assay in duplicate wells.
(§3) IC50 was defined as the concentration of the compound required to inhibit bioluminescence signals by 50%, relative to carrier control treated 293T cells stably expressing Hsp90α/p23 split RL reporters. IC50 was defined as the concentration of the compound required to inhibit bioluminescence signals by 50%, relative to carrier control treated 293T cells stably expressing Hsp90β/p23 split RL reporters. % Inhibition of 293T cells stably expressing Hsp90</p23 split RL reporters by each compound at 20 μM was determined by CELL TITER BLUE ASSAY®.

By UniProt entry, the sequences of proteins in these tests, tags left out.
UniProt P08238, whole entry: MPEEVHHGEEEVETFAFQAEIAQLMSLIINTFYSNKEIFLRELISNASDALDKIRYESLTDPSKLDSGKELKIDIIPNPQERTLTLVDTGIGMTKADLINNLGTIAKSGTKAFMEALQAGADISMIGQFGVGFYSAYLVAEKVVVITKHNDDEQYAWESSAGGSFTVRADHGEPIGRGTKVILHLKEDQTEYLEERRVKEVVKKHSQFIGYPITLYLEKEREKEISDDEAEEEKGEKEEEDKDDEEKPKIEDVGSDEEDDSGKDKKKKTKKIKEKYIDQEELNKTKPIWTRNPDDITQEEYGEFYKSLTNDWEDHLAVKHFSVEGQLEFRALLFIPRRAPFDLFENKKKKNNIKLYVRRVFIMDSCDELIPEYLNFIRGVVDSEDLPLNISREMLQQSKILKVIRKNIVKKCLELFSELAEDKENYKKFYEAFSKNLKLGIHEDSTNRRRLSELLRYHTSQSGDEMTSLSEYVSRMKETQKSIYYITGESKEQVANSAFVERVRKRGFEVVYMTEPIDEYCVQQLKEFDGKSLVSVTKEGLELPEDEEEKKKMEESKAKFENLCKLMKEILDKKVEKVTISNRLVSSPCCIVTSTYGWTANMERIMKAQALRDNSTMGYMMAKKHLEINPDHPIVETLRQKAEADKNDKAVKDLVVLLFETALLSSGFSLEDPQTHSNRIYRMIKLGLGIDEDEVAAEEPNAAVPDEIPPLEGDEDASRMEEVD

Hsp90β/p23 interactions = Hsp90β/p23 interactions (Homo sapiens, UniProt P08238); assay: HTS dose response, 293T cells stably expressing Hsp90β/p23 split RL reporters; details: read-out: IC50 (Hsp90β/p23); inhibition of bioluminescence signals by 50% vs carrier control; 8 point dose response 0.156-20 μM; 24 h
Protocol: as §1, §2, §3

[1] = test system: 293T cells stably expressing split RL reporters; assay: Cell Titer-Blue cell proliferation assay
Protocol: Inhibition of cell proliferation at 20 μM was determined by cell-titer blue assays and toxic compounds were eliminated. The IC50 values for inhibition of bioluminescence signals (BLI) in cells stably expressing Hsp90(α/β)/p23 split RL reporters and the inhibition of cell proliferation for the top 19 compounds are shown in Table 1, Example 15, and their structures are shown in FIGS. 1A-1D.
as §2, §3

[2] = test system: Hsp90(α/β)/p23 interactions; assay: BLI of lead compounds in intact 293T cells with split RL reporters; details: 24 h; normalized for cell number and carrier control
Protocol: FIG. 4A illustrates a dose-dependent decrease in bioluminescence signals in 293T cells stably expressing Hsp90α/p23 and Hsp90β/p23 split RL reporters treated with compound CP1 at the indicated dose for 24 h (left). Bioluminescence signals were quantified and normalized for cell number and that of carrier control treated cells (right). Results were expressed as mean±S.E.M.
To determine the effect of lead compounds on disruption of Hsp90(α/β)/p23 interactions in intact cells, 3.5×10^4 293T cells stably transfected with split RL reporters as described in Chan et al., (2008) Cancer Res. 68: 216-226, were plated in each well in the 96-well black wall plate (Costar, Corning, N.Y.) and allowed to attach for 24 h, prior to treatment with different concentrations of the lead compounds for 24 h. The 10 μg/ml of ENDUREN® (in […] of cell culture medium) was added to each well for 1.5 h and RL activities were determined. BLI signals were normalized to that of cell number for each well (determined by Alamar Blue assay (Invitrogen, Carlsbad, Calif.)), prior to normalization to carrier control-treated cells.

[3] = test system: Hsp90 client proteins (Raf-1, total and phosphorylated Akt); assay: Western blotting of Hsp90 client proteins in 293T cells; details: 5 μM, 24 h
Protocol: FIG. 5A is a digital image of a western blot analysis illustrating the effect of lead compounds on the expression of Hsp90 client proteins. 293T cells stably expressing Hsp90(α/β)/p23 split reporters were treated with carrier control or compounds CP1, CP9, or CP18 (5 μM each) for 24 h. The known Hsp90 inhibitor PU-H71 (2 μM) was used as a positive control. The expression of Hsp90 client proteins (Raf-1, total and phosphorylated Akt) was determined by western blotting. α-Tubulin was used as a loading control.
(§4) Cells treated with PU-H71 (2 μM) served as a positive control. […] PU-H71 decreased levels of Raf-1, pAkt and total Akt, as expected. The disruption of endogenous Hsp90(α/β)/p23 interactions by CP9 and CP18 was also confirmed by co-immunoprecipitation (FIG. 5B).
To validate the mechanisms of the lead compounds and their analogues for inhibition of Hsp90(α/β)/p23 interactions, 293T cells stably expressing the Hsp90(α/β)/p23 split reporters were treated with 5 μM of CP1, CP9 and CP18 or carrier control for 24 h. Cells treated with 2 μM of PU-H71 served as a positive control. Western blotting of Hsp70, phosphorylated and total Akt and co-immunoprecipitation of Hsp90(α/β)/p23 interactions was performed as described Inglese et al., (2006) Proc. Nat. Acad. Sci. U.S.A. 103: 11473-11478, incorporated herein by reference in its entirety. […]

[4] = test system: endogenous Hsp90(α/β)/p23 interactions; assay: Co-immunoprecipitation of Hsp90(α/β)/p23; details: 5 μM, 24 h, 293T cells
Protocol: FIG. 5B is a digital image of a western blot analysis illustrating the effects of compounds CP1, CP9 and CP18 on disruption of Hsp90α/p23 and Hsp90β/p23 as determined by co-immunoprecipitation using antibodies against p23 and probing with Hsp90α- and Hsp90β-specific antibodies. The blot was probed with antibodies against p23 to ensure similar immunoprecipitation efficiency. Cells treated with 2 μM of PU-H71 served as a positive control.
as §4
To validate the mechanisms of the lead compounds and their analogues for inhibition of Hsp90(α/β)/p23 interactions, 293T cells stably expressing the Hsp90(α/β)/p23 split reporters were treated with 5 μM of CP1, CP9 and CP18 or carrier control for 24 h. Cells treated with 2 μM of PU-H71 served as a positive control. Western blotting of Hsp70, phosphorylated and total Akt and co-immunoprecipitation of Hsp90(α/β)/p23 interactions was performed as described Inglese et al., (2006) Proc. Nat. Acad. Sci. U.S.A. 103: 11473-11478, incorporated herein by reference in its entirety. The expression of Raf-1 was determined using rabbit polyclonal antibodies against Raf-1 (0.5 μg/ml, Abcam).

Row | IC50 (Hsp90α/p23 interactions) [nM] | IC50 (Hsp90β/p23 interactions) [nM] | Structure (SMILES) | % Inhibition of Cell Proliferation (20 μM) [1] [%] | bioluminescence signals in 293T cells expressing Hsp90α/p23 and Hsp90β/p23 split RL reporters [2] | levels of Hsp90 client proteins (pAkt/total Akt, Raf-1) [3] | disruption of endogenous Hsp90(α/β)/p23 interactions by co-immunoprecipitation [4]
1 | 1900 | 2900 | Cn1c(=O)c2[nH]c(Cc3ccc(C(F)(F)F)cc3)nc2n(C)c1=O | 45 |  |  | 
2 | 1400 | 1700 | Cc1cc(-c2ccc(NC(=O)c3ccncc3)c(C)c2)ccc1NC(=O)c1ccncc1 | 46 |  |  | 
3 | 200 | 500 | Cn1c(=O)c2c(ncn2Cc2ccc(C(C)(C)C)cc2)n(C)c1=O | 44 | dose-dependent decrease | did not significantly decrease | 
4 | 2700 | 6000 | COc1ccc(S(=O)(=O)NCc2ccncc2)c(Cl)c1Cl | 32 |  |  | 
5 | 70 | 40 | COc1ccc(CC(=O)Nc2nc(-c3ccccc3)c(C)s2)cc1OC | 55 | dose-dependent decrease |  | disruption of endogenous Hsp90(α/β)/p23 interactions
6 | 1400 | 2300 | COc1cc(C)c(S(=O)(=O)NOCc2ccccc2)c(C)c1 | 10 |  |  | 
7 | 1400 | 3100 | CC(C)Cc1ccc(C(C)C(=O)Nc2cccnc2)cc1 (stereo not shown) | 35 |  |  | 
8 | 300 | 800 | Cc1nn(C)c(C)c1CN(C)S(=O)(=O)c1ccc2ccccc2c1 | 50 |  |  | 
9 | 1200 | 2400 | Cc1cc(C)c(S(=O)(=O)NCCc2ccncc2)c(C)c1 | 11 |  |  | 
10 | 2100 | 8100 | CC1CCN(S(=O)(=O)c2ccc(NC(=O)c3ccc(-c4ccccc4)cc3)cc2)CC1 | 10 |  |  | 
11 | 2300 | 5700 | COc1ccc(CC(=O)Nc2sc3c(c2C#N)CCCC3)cc1OC | 27 |  |  | 
12 | 1800 | 2800 | COc1ccc(NC(=O)COc2cncc(C(C)(C)C)c2)cc1OC | 43 |  |  | 
13 | 800 | 2400 | Cc1nc2sccn2c1C(=O)Nc1nc(-c2ccc(Cl)cc2)cs1 | 45 |  |  | 
14 | 3900 | 17500 | CN(C)c1ccc(C2C(C#N)=C(N)Oc3[nH]nc(-c4cccc5ccccc45)c32)cc1 (stereo not shown) | 13 |  |  | 
15 | 1200 | 1600 | Cc1cc(C)cc(NS(=O)(=O)c2ccc(NC(=O)c3ccc(F)cc3)cc2)c1 | 33 |  |  | 

Reference: patent US20130310347A1, “MULTI-MODALITY MOLECULAR IMAGING HIGH-THROUGHPUT ASSAY FOR IDENTIFYING HEAT SHOCK PROTEIN 90 (HSP90) INHIBITORS” (The Board of Trustees of the Leland Stanford Junior …, priority 2012, published 2013)
